Legend:
[1] = system: KIT phosphorylation in M-07e cells; test: Cell-based KIT phosphorylation in M-07e cells by pKIT ELISA; conditions: read-out: M-07e pKIT IC50, SCF stimulation
PDGFRα [2] = target: T1, PDGFRα (Homo sapiens, UniProt P16234); test: HTRF biochemical assay, PDGFRα; conditions: read-out: PDFGRα Biochemical IC50 avg, Table 4
CSF-1R [3] = target: T2, CSF-1R (Homo sapiens, UniProt P07333); test: HTRF biochemical assay, CSF-1R; conditions: read-out: CSF-1R Biochemical IC50 avg, Table 4
Kinetic solubility assay = conditions: 50 mM PB (pH 7.4), shaken 24 hours at RT
wtKIT [4] = target: T3, wtKIT (Homo sapiens, UniProt P10721); test: HTRF biochemical assay, wtKIT (phosphorylation of a peptide substrate); conditions: read-out: KIT Biochemical IC50 avg, Table 4
[5] = target: BCRP (BCRP-MDCKII monolayer) (Homo sapiens, UniProt Q9UNQ0); test: MDCKII-BCRP bidirectional transport assay; conditions: for MDCK-BCRP: Papp A-B: apical to basolateral
wtKIT [6] = target: T3, wtKIT; test: Caliper biochemical assay, wtKIT; conditions: read-out: KIT Biochemical IC50 avg, Table 6
CSF-1R [7] = target: T2, CSF-1R; test: Caliper biochemical assay, CSF-1R; conditions: read-out: CSF-1R Biochemical IC50, Table 6
PDGFRα [8] = target: T1, PDGFRα; test: Caliper biochemical assay, PDGFRα; conditions: read-out: PDGFRα Biochemical Avg IC50, Table 6
[9] = Three time point assay for plasma, brain and testes distribution after oral dosing; conditions: rat, time point 2 h

The chains behind the UniProt entries cited, without tags or fusion partners. Residues count along the entry.
UniProt P16234, 24-1089 limits assumed: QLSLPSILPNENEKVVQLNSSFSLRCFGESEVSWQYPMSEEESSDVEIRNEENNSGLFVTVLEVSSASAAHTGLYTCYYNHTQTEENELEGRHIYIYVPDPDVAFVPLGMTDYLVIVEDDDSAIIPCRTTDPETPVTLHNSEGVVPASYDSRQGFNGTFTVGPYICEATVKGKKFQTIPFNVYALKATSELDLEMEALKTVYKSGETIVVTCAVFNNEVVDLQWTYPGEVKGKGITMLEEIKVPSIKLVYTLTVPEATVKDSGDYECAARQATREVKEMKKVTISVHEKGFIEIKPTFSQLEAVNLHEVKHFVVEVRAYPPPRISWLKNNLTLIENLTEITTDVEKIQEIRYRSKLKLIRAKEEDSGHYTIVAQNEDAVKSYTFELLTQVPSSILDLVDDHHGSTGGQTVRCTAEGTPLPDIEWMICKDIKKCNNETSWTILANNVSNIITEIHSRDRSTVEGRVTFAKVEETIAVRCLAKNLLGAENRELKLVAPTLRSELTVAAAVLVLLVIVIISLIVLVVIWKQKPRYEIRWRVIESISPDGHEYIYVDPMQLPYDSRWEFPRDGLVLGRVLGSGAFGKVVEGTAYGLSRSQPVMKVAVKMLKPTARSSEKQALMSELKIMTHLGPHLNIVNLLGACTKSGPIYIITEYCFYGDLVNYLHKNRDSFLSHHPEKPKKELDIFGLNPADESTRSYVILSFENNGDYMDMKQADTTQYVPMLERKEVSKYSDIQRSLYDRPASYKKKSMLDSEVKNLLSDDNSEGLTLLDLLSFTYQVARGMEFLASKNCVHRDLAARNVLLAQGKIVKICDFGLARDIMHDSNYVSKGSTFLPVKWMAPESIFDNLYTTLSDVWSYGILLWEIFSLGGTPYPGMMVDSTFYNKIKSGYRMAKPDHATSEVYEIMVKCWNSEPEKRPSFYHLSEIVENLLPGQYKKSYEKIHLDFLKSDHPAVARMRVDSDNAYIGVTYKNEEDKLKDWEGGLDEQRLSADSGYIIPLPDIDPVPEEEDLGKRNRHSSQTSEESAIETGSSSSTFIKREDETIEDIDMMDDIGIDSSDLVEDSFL
UniProt P07333, 20-972 limits assumed: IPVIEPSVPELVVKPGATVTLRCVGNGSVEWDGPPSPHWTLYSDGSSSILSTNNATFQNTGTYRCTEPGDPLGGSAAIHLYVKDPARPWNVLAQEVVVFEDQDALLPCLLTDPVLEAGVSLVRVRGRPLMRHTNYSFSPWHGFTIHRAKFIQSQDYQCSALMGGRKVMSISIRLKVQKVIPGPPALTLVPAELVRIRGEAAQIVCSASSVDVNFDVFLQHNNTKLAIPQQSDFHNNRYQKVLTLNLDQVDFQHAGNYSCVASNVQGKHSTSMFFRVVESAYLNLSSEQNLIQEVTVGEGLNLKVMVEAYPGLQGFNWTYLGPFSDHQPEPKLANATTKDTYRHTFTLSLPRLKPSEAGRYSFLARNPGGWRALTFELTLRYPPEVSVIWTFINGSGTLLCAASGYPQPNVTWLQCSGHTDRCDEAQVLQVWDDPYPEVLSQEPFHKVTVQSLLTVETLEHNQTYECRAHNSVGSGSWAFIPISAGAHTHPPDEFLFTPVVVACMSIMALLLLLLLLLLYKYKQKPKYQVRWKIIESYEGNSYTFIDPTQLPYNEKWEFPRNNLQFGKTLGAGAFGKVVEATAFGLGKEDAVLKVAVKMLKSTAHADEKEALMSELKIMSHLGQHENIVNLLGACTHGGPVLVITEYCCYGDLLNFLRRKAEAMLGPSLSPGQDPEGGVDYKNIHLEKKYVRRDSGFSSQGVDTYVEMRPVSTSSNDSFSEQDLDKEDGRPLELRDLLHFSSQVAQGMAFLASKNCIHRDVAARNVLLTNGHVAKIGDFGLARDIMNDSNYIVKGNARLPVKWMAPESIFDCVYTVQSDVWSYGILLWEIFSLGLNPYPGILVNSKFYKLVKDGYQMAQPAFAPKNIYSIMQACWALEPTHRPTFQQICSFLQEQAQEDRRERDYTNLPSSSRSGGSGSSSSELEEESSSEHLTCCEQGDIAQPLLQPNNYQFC
UniProt P10721, 26-976 limits assumed: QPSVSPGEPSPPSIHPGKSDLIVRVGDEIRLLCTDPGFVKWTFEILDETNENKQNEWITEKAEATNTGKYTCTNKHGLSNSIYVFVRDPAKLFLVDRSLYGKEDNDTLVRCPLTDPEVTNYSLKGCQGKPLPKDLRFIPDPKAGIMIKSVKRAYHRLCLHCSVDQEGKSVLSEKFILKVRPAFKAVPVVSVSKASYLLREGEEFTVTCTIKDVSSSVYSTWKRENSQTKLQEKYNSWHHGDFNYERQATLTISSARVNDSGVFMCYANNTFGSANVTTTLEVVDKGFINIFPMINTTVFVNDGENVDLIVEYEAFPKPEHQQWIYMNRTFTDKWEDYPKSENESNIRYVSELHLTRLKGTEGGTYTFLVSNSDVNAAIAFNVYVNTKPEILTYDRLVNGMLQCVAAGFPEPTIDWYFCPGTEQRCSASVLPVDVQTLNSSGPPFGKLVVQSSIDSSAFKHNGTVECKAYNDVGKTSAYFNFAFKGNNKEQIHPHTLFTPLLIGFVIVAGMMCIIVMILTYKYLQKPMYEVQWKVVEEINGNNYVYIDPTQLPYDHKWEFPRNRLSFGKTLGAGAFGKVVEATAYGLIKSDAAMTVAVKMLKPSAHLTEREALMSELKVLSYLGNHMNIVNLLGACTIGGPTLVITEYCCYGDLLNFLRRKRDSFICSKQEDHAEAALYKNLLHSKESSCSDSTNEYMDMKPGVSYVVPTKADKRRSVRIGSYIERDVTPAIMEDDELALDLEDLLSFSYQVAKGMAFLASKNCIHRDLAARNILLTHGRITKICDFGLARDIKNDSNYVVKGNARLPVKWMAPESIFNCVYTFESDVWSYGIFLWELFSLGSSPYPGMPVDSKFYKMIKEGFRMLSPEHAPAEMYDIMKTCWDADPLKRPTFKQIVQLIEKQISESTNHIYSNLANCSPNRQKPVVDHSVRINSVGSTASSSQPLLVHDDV
UniProt Q9UNQ0, whole entry: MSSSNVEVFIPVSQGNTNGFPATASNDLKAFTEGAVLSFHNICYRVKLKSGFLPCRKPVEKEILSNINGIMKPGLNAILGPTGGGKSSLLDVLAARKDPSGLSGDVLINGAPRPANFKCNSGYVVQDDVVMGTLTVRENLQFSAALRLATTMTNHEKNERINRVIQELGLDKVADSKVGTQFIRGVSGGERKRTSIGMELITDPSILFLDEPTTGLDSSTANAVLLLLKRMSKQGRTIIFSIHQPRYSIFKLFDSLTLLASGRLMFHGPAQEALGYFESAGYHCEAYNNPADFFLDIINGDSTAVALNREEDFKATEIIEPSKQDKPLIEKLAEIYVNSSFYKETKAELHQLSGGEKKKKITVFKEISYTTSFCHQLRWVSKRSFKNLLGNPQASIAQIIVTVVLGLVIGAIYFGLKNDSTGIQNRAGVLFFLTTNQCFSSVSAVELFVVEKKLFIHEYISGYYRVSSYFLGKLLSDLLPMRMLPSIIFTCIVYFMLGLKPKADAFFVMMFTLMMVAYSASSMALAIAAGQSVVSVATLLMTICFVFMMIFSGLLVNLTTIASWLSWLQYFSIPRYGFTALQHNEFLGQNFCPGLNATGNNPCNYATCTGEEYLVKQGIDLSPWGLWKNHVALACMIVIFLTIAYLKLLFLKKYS

| Structure (SMILES) | IC50 [1] | IC50 (PDGFRα [2]) | IC50 (CSF-1R [3]) | Solubility (μM) (Kinetic solubility assay) | IC50 (wtKIT [4]) | IC50 (wtKIT [6]) | IC50 (CSF-1R [7]) | IC50 (PDGFRα [8]) | other results |
| --- | --- | --- | --- | --- | --- | --- | --- | --- | --- |
| Cc1ccc(-c2noc([C@H]3C[C@@H]3F)n2)cc1NC(=O)c1cnc2cc(C3CNC3)ccn12 | 50 to 500 nM | 5000 to 30000 nM | 500 to 5000 nM | * (a solubility greater than 50 μM) | 50 to 500 nM |  |  |  |  |
| Cc1ccc(-c2noc(C3CC34CC4)n2)cc1NC(=O)c1cnc2ccccn12 (stereo not drawn) | < 50 nM |  |  | **** (a solubility less than or equal to 2 μM) |  | < 50 nM | < 50 nM | 500 to 5000 nM | MDCK-BCRP: Efflux Ratio [5]: 0.94; MDCK-BCRP: Papp A-B [5]: 12.4 10^−6 cm/s |
| Cc1ccc(-c2noc([C@@H]3C[C@H]3C#N)n2)cc1NC(=O)c1cnc2ccccn12 (relative stereo) | < 50 nM |  |  |  |  | < 50 nM | < 50 nM | < 50 nM | MDCK-BCRP: Efflux Ratio [5]: 2.66; MDCK-BCRP: Papp A-B [5]: 7.77 10^−6 cm/s |
| Cc1ccc(-c2noc(CC(C)O)n2)cc1NC(=O)c1cnc2ccccn12 (single isomer, unassigned) [I-257] |  |  |  | * (a solubility greater than 50 μM) | < 50 nM | < 50 nM | 50 to 500 nM | 500 to 5000 nM | MDCK-BCRP: Efflux Ratio [5]: 28.5; MDCK-BCRP: Papp A-B [5]: 1.26 10^−6 cm/s; Brain concentration [9]: 0 ng/g; Kp testes/plasma [9]: 0.21; Plasma concentration [9]: 127 ng/mL; Testes concentration [9]: 27.1 ng/g |
| Cc1ccc(-c2noc([C@H]3C[C@@H]3F)n2)cc1NC(=O)c1cnn2cc(C#N)ccc12 | 50 to 500 nM |  |  |  |  | < 50 nM | 50 to 500 nM | 5000 to 30000 nM |  |
| Cc1ccc(-c2noc(C3(C)CC3(F)F)n2)cc1NC(=O)c1cnc2ccccn12 (stereo not drawn) | < 50 nM |  |  | **** (a solubility less than or equal to 2 μM) |  | < 50 nM | 50 to 500 nM | 500 to 5000 nM |  |
| COCc1ccn2c(C(=O)Nc3cc(-c4noc([C@@H]5CCN5)n4)ccc3C)cnc2c1 |  | 5000 to 30000 nM | 50 to 500 nM |  | < 50 nM |  |  |  |  |
| Cc1ccc(-c2noc([C@H]3CCN3C)n2)cc1NC(=O)c1cnc2cc(C(C)(F)F)ccn12 |  | 5000 to 30000 nM | 500 to 5000 nM |  | 50 to 500 nM |  |  |  |  |
| Cc1ccc(-c2noc(CCO)n2)cc1NC(=O)c1cnn2ccccc12 | 50 to 500 nM |  |  | ** (a solubility greater than 10 μM and less than or equal to 50 μM) |  | < 50 nM | 500 to 5000 nM | 5000 to 30000 nM |  |
| COC(=O)Nc1ccc2ncc(C(=O)Nc3cc(-c4noc([C@H]5C[C@@H]5F)n4)ccc3C)n2c1 | < 50 nM |  |  | *** (a solubility greater than 2 μM and less than or equal to 10 μM) |  | < 50 nM | < 50 nM | 50 to 500 nM |  |
| Cc1ccc(-c2noc(C3CC(O)C3)n2)cc1NC(=O)c1cnc2ccccn12 (single isomer, unassigned) | < 50 nM |  |  | ** (a solubility greater than 10 μM and less than or equal to 50 μM) |  |  | 500 to 5000 nM | 500 to 5000 nM |  |
| Cc1ccc(-c2noc([C@H]3C[C@H](OCCF)C3)n2)cc1NC(=O)c1cnc2cc(Cl)ccn12 |  | 5000 to 30000 nM | 50 to 500 nM |  | < 50 nM |  |  |  |  |
| Cc1ccc(-c2noc(CC3COC3)n2)cc1NC(=O)c1cnc2ccccn12 | < 50 nM |  |  | ** (a solubility greater than 10 μM and less than or equal to 50 μM) |  | < 50 nM | 50 to 500 nM | 500 to 5000 nM |  |
| Cc1ccc(-c2noc(C3CC3F)n2)cc1NC(=O)c1cnc2cc(Br)ccn12 (single isomer, unassigned) |  |  |  | **** (a solubility less than or equal to 2 μM) |  | < 50 nM | < 50 nM | 50 to 500 nM | MDCK-BCRP: Efflux Ratio [5]: 1.04; MDCK-BCRP: Papp A-B [5]: 8.32 10^−6 cm/s |
| Cc1ccc(-c2noc(C3CO3)n2)cc1NC(=O)c1cnc2ccccn12 (stereo not drawn) | < 50 nM | 500 to 5000 nM | 50 to 500 nM | ** (a solubility greater than 10 μM and less than or equal to 50 μM) | < 50 nM |  |  |  |  |
| Cc1ccc(-c2noc(C3CC3F)n2)cc1NC(=O)c1cnc2cc(COCC(F)(F)F)ccn12 (stereo not drawn) | 50 to 500 nM |  |  | **** (a solubility less than or equal to 2 μM) |  | < 50 nM | < 50 nM | 50 to 500 nM |  |
| COc1ccn2c(C(=O)Nc3cc(-c4noc([C@H]5C[C@H](OCCF)C5)n4)ccc3C)cnc2c1 |  | 500 to 5000 nM | < 50 nM |  | < 50 nM |  |  |  |  |
| Cc1ccc(-c2noc([C@H]3C[C@@H]3F)n2)cc1NC(=O)c1cnc2cc(NS(=O)(=O)C3CC3)ccn12 | < 50 nM |  |  | ** (a solubility greater than 10 μM and less than or equal to 50 μM) | < 50 nM | < 50 nM | < 50 nM | 50 to 500 nM | MDCK-BCRP: Efflux Ratio [5]: 27.5; MDCK-BCRP: Papp A-B [5]: 0.56 10^−6 cm/s |
| COCc1ccn2c(C(=O)Nc3cc(-c4noc(C5CC5F)n4)ccc3C)cnc2c1 (stereo not drawn) | < 50 nM |  |  | **** (a solubility less than or equal to 2 μM) |  | < 50 nM | < 50 nM | 50 to 500 nM |  |

| Structure (SMILES) | IC50 [1] | IC50 (PDGFRα [2]) | IC50 (CSF-1R [3]) | Solubility (μM) (Kinetic solubility assay) | IC50 (wtKIT [4]) | IC50 (wtKIT [6]) | IC50 (CSF-1R [7]) | IC50 (PDGFRα [8]) | other results |
| --- | --- | --- | --- | --- | --- | --- | --- | --- | --- |
| Cc1ccc(-c2noc([C@@H]3CCCN3C)n2)cc1NC(=O)c1cnn2cc(-c3ccn(C)n3)ccc12 |  | 50 to 500 nM | < 50 nM |  | < 50 nM |  |  |  |  |
| Cc1ccc(-c2noc(C3CC3C(F)(F)F)n2)cc1NC(=O)c1cnc2ccccn12 (stereo not drawn) | < 50 nM | 50 to 500 nM | < 50 nM | **** (a solubility less than or equal to 2 μM) | < 50 nM |  |  |  |  |
| CC[C@H](O)Cc1nc(-c2ccc(C)c(NC(=O)c3cnc4cc(COC)ccn34)c2)no1 |  | 5000 to 30000 nM | 50 to 500 nM |  | < 50 nM |  |  |  |  |
| CNc1ccc2ncc(C(=O)Nc3cc(-c4noc(C)n4)ccc3C)n2c1 | < 50 nM |  |  | **** (a solubility less than or equal to 2 μM) |  | < 50 nM | < 50 nM | 50 to 500 nM |  |
| COc1ccn2c(C(=O)Nc3cc(-c4noc([C@H]5C[C@@H](OCCF)C5)n4)ccc3C)cnc2c1 |  | 500 to 5000 nM | < 50 nM |  | < 50 nM |  |  |  |  |
| Cc1ccc(-c2noc([C@@H]3CCN3)n2)cc1NC(=O)c1cnc2cc(C(C)(F)F)ccn12 |  | 5000 to 30000 nM | 50 to 500 nM |  | 50 to 500 nM |  |  |  |  |
| Cc1nc(-c2ccc(C)c(NC(=O)c3cnc4cc(C#N)ccn34)c2)no1 |  |  |  | *** (a solubility greater than 2 μM and less than or equal to 10 μM) |  | 50 to 500 nM | 5000 to 30000 nM | 5000 to 30000 nM | MDCK-BCRP: Efflux Ratio [5]: 1.96; MDCK-BCRP: Papp A-B [5]: 11.1 10^−6 cm/s |
| CCc1nc(-c2ccc(Cl)c(NC(=O)c3cnn4ccccc34)c2)no1 | < 50 nM |  |  |  |  | < 50 nM | 50 to 500 nM | 500 to 5000 nM |  |
| Cc1nc(-c2ccc(C)c(NC(=O)c3cnc4cc(OCCCN5C(=O)OC[C@H]5CO)ccn34)c2)no1 |  | 500 to 5000 nM | 50 to 500 nM |  | < 50 nM |  |  |  |  |
| Cc1ccc(-c2noc([C@H]3C[C@@H](OCCF)C3)n2)cc1NC(=O)c1cnc2cc(Cl)ccn12 |  | 5000 to 30000 nM | 50 to 500 nM |  | < 50 nM |  |  |  |  |
| Cc1ccc(-c2noc(CS(=O)(=O)N(C)C)n2)cc1NC(=O)c1cnc2ccccn12 |  |  |  | *** (a solubility greater than 2 μM and less than or equal to 10 μM) | 50 to 500 nM | < 50 nM | 50 to 500 nM | 50 to 500 nM | MDCK-BCRP: Efflux Ratio [5]: 25.7; MDCK-BCRP: Papp A-B [5]: 1.17 10^−6 cm/s; Brain concentration [9]: 0 ng/g; Kp testes/plasma [9]: 0.11; Plasma concentration [9]: 746 ng/mL; Testes concentration [9]: 62.8 ng/g |
| O=C(Nc1cccc(-c2noc(CN3CC(F)(F)C3)n2)c1F)c1cnc2ccccn12 | < 50 nM |  |  | **** (a solubility less than or equal to 2 μM) |  | < 50 nM | 5000 to 30000 nM | 5000 to 30000 nM |  |
| CC[C@@H](O)Cc1nc(-c2ccc(C)c(NC(=O)c3cnc4cc(-c5cncn5C)ccn34)c2)no1 |  | 50 to 500 nM | < 50 nM |  | < 50 nM |  |  |  |  |
| CCc1nc(-c2ccc(Cl)c(NC(=O)c3cnc4ccccn34)c2)no1 | 50 to 500 nM |  |  | **** (a solubility less than or equal to 2 μM) |  | < 50 nM | < 50 nM | 500 to 5000 nM |  |
| COCc1ccn2c(C(=O)Nc3cc(-c4noc(C[C@@H](C)O)n4)ccc3C)cnc2c1 |  | 5000 to 30000 nM | 50 to 500 nM |  | 50 to 500 nM |  |  |  |  |
| Cc1ccc(-c2noc(C(C)C)n2)cc1NC(=O)c1cnc2ccccn12 |  |  |  | *** (a solubility greater than 2 μM and less than or equal to 10 μM) |  | < 50 nM | < 50 nM | 500 to 5000 nM | MDCK-BCRP: Efflux Ratio [5]: 0.56; MDCK-BCRP: Papp A-B [5]: 20.3 10^−6 cm/s |
| COCc1ccn2c(C(=O)Nc3cc(-c4noc([C@H]5CCN5)n4)ccc3C)cnc2c1 |  | 5000 to 30000 nM | 50 to 500 nM |  | < 50 nM |  |  |  |  |
| Cc1ccc(-c2noc([C@H]3C[C@@H]3F)n2)cc1NC(=O)c1cnc2cc(NS(C)(=O)=O)ccn12 | 50 to 500 nM |  |  | ** (a solubility greater than 10 μM and less than or equal to 50 μM) |  | < 50 nM | < 50 nM | 500 to 5000 nM |  |
